Experiment: Water-solubility test at 25° C. of the isolated salts (HPLC)
Format: physicochemical
Conditions: shaken 3 hours (5 days for meglumine salt), filtered, concentration of Compound A by HPLC
Description: Preparation of the Test Solution
After shaking, the mixture was filtered through a 0.45 μm membrane filter (0.2 μm for meglumine salt). 1 mL of the filtrate was precisely pipetted and thereto was added 50% DMF so as to be totally 50 mL in precise. 2 mL of this solution was precisely pipetted and thereto was added 50% DMF so as to be totally 20 mL in precise to give a sample solution.
Preparation of the Standard Solution
Using each 10 μL of the sample solutions and the standard solutions, the liquid chromatographic analyses were carried out in the following conditions.

Solubility (%): 0.05%
Substance: 2-(4-chlorobenzoylamino)-3-(2-quinolon-4-yl)propionic acid-.1/2 ethylenediamine salt [Compound A·1/2 ethylenediamine salt]

Source: US7732611B2, “Amine salt of carbostyril derivative” (Otsuka Pharmaceutical Co., Ltd., priority 2004, dated 2010)
